This note sets out measurements from paper PMC4629110 (Acta Pharmaceutica Sinica. B, 2014).

Protein sequences, listed by entry. Tags and fused reporters are not part of them. Residues count along the entry.
UniProt P06276, 29-602: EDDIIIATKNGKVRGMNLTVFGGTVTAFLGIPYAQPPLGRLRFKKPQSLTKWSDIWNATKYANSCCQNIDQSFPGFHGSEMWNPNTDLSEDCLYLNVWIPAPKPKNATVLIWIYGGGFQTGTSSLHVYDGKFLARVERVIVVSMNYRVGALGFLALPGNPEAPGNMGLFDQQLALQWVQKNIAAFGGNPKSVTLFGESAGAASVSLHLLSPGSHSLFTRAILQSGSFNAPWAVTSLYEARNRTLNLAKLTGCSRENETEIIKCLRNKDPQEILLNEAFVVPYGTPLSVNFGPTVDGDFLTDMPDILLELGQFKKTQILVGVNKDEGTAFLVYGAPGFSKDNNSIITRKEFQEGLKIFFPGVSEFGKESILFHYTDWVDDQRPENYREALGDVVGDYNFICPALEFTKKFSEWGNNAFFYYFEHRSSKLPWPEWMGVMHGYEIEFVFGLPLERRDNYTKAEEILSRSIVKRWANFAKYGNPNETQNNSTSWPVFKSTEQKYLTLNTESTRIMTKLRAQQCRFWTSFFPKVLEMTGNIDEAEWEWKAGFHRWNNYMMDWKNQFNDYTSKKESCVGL

One may read the IC50 as the midpoint of a concentration-inhibition curve. Read a low IC50 as higher potency.

The structures appear in SMILES notation.

The target in the assay is BuChE (Homo sapiens, UniProt P06276). Kind of assay: In vitro BuChE inhibition assay. In kind it is biochemical.

On to `CC(C)NP(=O)(NC(C)C)OP(=O)(NC(C)C)NC(C)C` [ISO-OMPA, tetraisopropyl pyrophosphoramide], for which the midpoint of inhibition, the IC50, lay at 2440 ± 170 nM.
